Source: patent US20240074473A1, “METHOD FOR INDUCING HYPERTROPHIC MUSCLE FIBERS FOR INDUSTRIAL MEAT PRODUCTION” (Yeda Research and Development Co. Ltd., priority 2021, published 2024)
Where two headings read alike, the source gives them in different places.

Columns and labels:
[1] = cited from earlier work; for Safe Reference Level for Human Dietary Intake: Iron UL: as iron
[2] = Risk categorization of cell culture media ingredients
Description: Category 1: These cell culture media components are food ingredients/additives that are GRAS or permitted by federal regulation without limitation on use. Exemplary compounds in this category include innocuous ingredients such as sugars, pH buffers, water soluble vitamins, and common antioxidants such as tocopherols.
Category 2: These cell culture media components are common dietary nutrients and are anticipated to have GRAS status for food use or be permitted by regulation for addition to food. Examples of such compounds include most of the inorganic salts and macronutrients that are present within the cell culture media. […] Majority of nutrients present within the poultry cell-based meat may be readily measured using common validated methods for food composition testing. Batch analyses of multiple lots of the finished product may be obtained to validate the above assumptions. In some instances, consideration of established safe levels (e.g., ADI, UL) derived from a relevant authoritative body (e.g., U.S. FDA, EFSA, JECFA, FSANZ, U.S. EPA) may be leveraged to support safety. If comparisons of anticipated dietary intakes relative to an authoritative reference intake value is used, consideration of additive intakes from all dietary sources may be considered. In the absence of an authoritative reference intake value, published NOAELs from animal toxicology studies may be used to evaluate safety using standard scientific procedures for food safety evaluation. A margin of exposure (MoE) of 100-fold or greater between the NOAEL and estimated dietary intakes from food exposures is typically considered adequate to support safety. in situations where the MoE is <100-fold, additional measures for further reduction of the media component may be necessary, or further characterization of intraspecies/interspecies differences in metabolism may be necessary. These situations also require careful consideration of the regulatory status on a case-by basis (e.g., premarket approval as a food additive or GRAS evaluation required).
For example, situations where the compound is not detectable in finished product or is present at equivalent levels in comparator foods, compounds that are thermo-labile and will be digested during cooking, and/or compounds that are expected to be digested to innocuous compounds following ingestion. […] For Category 3 substances a final consideration in the safety assessment process may involve hazard characterization of the potential for a substance to produce toxic biological effects outside of the endpoints measured in a sub-chronic rat toxicity study. […] Considerations for allergenicity, biological effects in humans (e.g., effects on blood pressure), and synergistic effects with other media components also may be evaluated. […]

[3] = Maximum estimated dietary exposure to media ingredients per 100 g serving; conditions: assumption of complete transfer of media components to the finished product on a wt/wt basis
[4] = cell culture media ingredient used during meat production

Maximum Estimated Exposure per 100 g serving [3] [mg] | Risk Assessment Category [2] | Substance | Safe Reference Level for Human Dietary Intake: Iron UL [1] | Risk Assessment Category [2, 4] | Safe Reference Level for Human Dietary Intake: Nitrate ADI (Acceptable Daily Intake) ([1]; as nitrate)
– | – | FERRIC AMMONIUM CITRATE | Iron UL = 40 to 45 mg | 2 | –
– | – | FERRIC CITRATE | – | 2 | –
0.3 | 3 | FERRIC NITRATE-9H2O | Iron UL = 40 to 45 mg; | – | Nitrate ADI = 3.7 mg/kg bw/day
4300 | – | SODIUM PHOSPHATE DIBASIC-ANHY | – | 1 | –
